Amino acid sequences for entries named in this document (tags omitted). Residues count along the entry.
UniProt P23219, 24-599: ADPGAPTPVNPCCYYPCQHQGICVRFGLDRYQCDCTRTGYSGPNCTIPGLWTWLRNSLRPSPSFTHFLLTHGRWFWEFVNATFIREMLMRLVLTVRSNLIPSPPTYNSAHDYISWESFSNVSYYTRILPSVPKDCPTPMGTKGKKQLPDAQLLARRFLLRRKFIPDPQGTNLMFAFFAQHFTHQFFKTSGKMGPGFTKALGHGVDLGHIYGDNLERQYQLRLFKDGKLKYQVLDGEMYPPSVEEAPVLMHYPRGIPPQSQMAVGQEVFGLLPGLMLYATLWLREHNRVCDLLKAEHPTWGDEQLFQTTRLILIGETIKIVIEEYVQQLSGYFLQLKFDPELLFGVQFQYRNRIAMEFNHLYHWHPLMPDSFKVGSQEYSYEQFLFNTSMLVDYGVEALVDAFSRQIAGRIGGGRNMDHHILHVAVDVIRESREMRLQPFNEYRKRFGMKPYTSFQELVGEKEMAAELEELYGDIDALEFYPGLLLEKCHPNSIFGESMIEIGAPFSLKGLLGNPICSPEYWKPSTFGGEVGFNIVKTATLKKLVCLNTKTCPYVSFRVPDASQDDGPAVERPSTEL

In patent US6780870B2, “Pyrimidine derivatives as selective inhibitors of COX-2” (SmithKline Beecham Corporation, priority 2000, dated 2004):

Target: T1, human COX-1 (Homo sapiens, UniProt P23219)
T1 construct: expressed in transfected cells
Assay: Inhibition of PGE2 release in COS cells stably transfected with human COX-1
Assay type: cell-based
Settings: COS cells stably transfected with cDNA for human COX-1; PGE2 release by enzyme immunoassay; 1 hour preincubation; 30 μM arachidonic acid, 15 minutes
Description: Inhibitory activity against human COX-1 and COX-2 was assessed in COS cells which had been stably transfected with cDNA for human COX-1 and human COX-2. 24 Hours prior to experiment, COS cells were transferred from the 175 cm^2 flasks in which they were grown, onto 24-well cell culture plates using the following procedure. The incubation medium (Dulbecco's modified eagles medium (DMEM) supplemented with heat-inactivated foetal calf serum (10% v/v), penicillin (100 IU/ml), streptomycin (100 μg/ml) and geneticin (600 μg/ml)) was removed from a flask of confluent cells (1 flask at confluency contains approximately 1×10^7 cells). 10 ml of phosphate buffered saline (PBS) was added to the flask to wash the cells. Having discarded the PBS, cells were then rinsed in 10 ml trypsin for 20 seconds, after which the trypsin was removed and the flask placed in an incubator (37°) for 1-2 minutes until cells became detached from the flask. The flask was then removed from the incubator and cells resuspended in 10 ml of fresh incubation medium. […]
Following the overnight incubation, the incubation medium was completely removed from the 24-well cell culture plates and replaced with 250 μl fresh DMEM (37° C.). […] The selectivity ratio of inhibition of COX-1 versus COX-2 was calculated by comparing respective IC50 values.

CS(=O)(=O)c1ccc(-c2cc(C(F)(F)F)nc(NCc3ccc(F)cc3)n2)cc1 [Example 15, N-(4-fluorobenzyl)-4-[4-(methylsulfonyl)phenyl]-6-(trifluoromethyl)pyrimidin-2-amine]
pIC50: < 4.00

pIC50: −log10 of the molar value.
